For this assay, the target named is human CD47 (human, UniProt Q08722 19-323). Put plainly: flow.

Protein sequences, listed by entry. Tags and fused reporters are not part of them. Residues count along the entry.
UniProt Q08722, 19-323: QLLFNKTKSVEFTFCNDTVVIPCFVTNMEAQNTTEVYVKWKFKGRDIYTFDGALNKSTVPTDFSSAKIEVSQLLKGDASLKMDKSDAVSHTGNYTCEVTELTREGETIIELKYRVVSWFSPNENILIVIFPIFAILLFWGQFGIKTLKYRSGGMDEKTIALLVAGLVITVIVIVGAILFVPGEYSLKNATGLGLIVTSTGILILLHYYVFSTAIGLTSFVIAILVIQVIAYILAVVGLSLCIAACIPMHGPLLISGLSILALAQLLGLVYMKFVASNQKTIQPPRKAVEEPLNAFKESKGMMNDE

This passage reports EC50 results from US20220267436A1 (published 2022).

B1: bispecific antibody LAG3-E-LC (bispecific antibody)
heavy: not shown
light: EIVLTQSPATLSLSPGERATLSCRASENVGTYISWYQQKPGQAPRLLIYGASNRYTGIPARFSGSGSGTDFTLTISSLEPEDFAVYYCGESYGHLYTFGGGTKVEIKRTVAAPSVFIFPPSDEQLKSGTASVVCLLNNFYPREAKVQWKVDNALQSGNSQESVTEQDSKDSTYSLSSTLTLSKADYEKHKVYACEVTHQGLSSPVTKSFNRGECEPKSSDKTHTSPPSPEVQLVESGGGLVQPGGSLRLSCAASGYTVSSYCMGWFRQAPGKGREGVSAIDSDGSVSYADSVKGRFTISKDNSKNTLYLQMNSLRAEDTAVYFCAADLCWVDQDQGEYNTWGQGTLVTVSS
Regarding B1, the EC50 came out at 1.2 nM.

B2: bispecific antibody LAG3-G9-LN (bispecific antibody)
heavy: not shown
light: EVQLVESGGGLVQPGGSLRLSCAASGYTVSSYCMGWFRQAPGKGREGVSAIDSDGSVSYADSVKGRFTISKDNSKNTLYLQMNSLRAEDTAVYFCAADLCWVDQDQGEYNTWGQGTLVTVSSGGGGSGGGSEIVLTQSPATLSLSPGERATLSCRASENVGTYISWYQQKPGQAPRLLIYGASNRYTGIPARFSGSGSGTDFTLTISSLEPEDFAVYYCGESYGHLYTFGGGTKVEIKRTVAAPSVFIFPPSDEQLKSGTASVVCLLNNFYPREAKVQWKVDNALQSGNSQESVTEQDSKDSTYSLSSTLTLSKADYEKHKVYACEVTHQGLSSPVTKSFNRGEC
Take B2: the EC50 came to 2.51 nM.

B3: bispecific antibody LAG3-G15-LN (bispecific antibody)
heavy: not shown
light: EVQLVESGGGLVQPGGSLRLSCAASGYTVSSYCMGWFRQAPGKGREGVSAIDSDGSVSYADSVKGRFTISKDNSKNTLYLQMNSLRAEDTAVYFCAADLCWVDQDQGEYNTWGQGTLVTVSSGGGGSGGGGSGGGGSEIVLTQSPATLSLSPGERATLSCRASENVGTYISWYQQKPGQAPRLLIYGASNRYTGIPARFSGSGSGTDFTLTISSLEPEDFAVYYCGESYGHLYTFGGGTKVEIKRTVAAPSVFIFPPSDEQLKSGTASVVCLLNNFYPREAKVQWKVDNALQSGNSQESVTEQDSKDSTYSLSSTLTLSKADYEKHKVYACEVTHQGLSSPVTKSFNRGEC
B3: the EC50 worked out at 3.38 nM.

B4: bispecific antibody LAG3-E-LN (bispecific antibody)
heavy: not shown
light: EVQLVESGGGLVQPGGSLRLSCAASGYTVSSYCMGWFRQAPGKGREGVSAIDSDGSVSYADSVKGRFTISKDNSKNTLYLQMNSLRAEDTAVYFCAADLCWVDQDQGEYNTWGQGTLVTVSSEPKSSDKTHTSPPSPEIVLTQSPATLSLSPGERATLSCRASENVGTYISWYQQKPGQAPRLLIYGASNRYTGIPARFSGSGSGTDFTLTISSLEPEDFAVYYCGESYGHLYTFGGGTKVEIKRTVAAPSVFIFPPSDEQLKSGTASVVCLLNNFYPREAKVQWKVDNALQSGNSQESVTEQDSKDSTYSLSSTLTLSKADYEKHKVYACEVTHQGLSSPVTKSFNRGEC
Regarding B4, the EC50 is around 4.07 nM.
